The chains behind the UniProt entries cited, without tags or fusion partners. A line that says so, or that is headed by a name, gives the form on record, which may keep a tag or linker. Residues count along the entry.
UniProt Q8TDV5, 2-335 with tags or gaps S329A/T327A limits assumed: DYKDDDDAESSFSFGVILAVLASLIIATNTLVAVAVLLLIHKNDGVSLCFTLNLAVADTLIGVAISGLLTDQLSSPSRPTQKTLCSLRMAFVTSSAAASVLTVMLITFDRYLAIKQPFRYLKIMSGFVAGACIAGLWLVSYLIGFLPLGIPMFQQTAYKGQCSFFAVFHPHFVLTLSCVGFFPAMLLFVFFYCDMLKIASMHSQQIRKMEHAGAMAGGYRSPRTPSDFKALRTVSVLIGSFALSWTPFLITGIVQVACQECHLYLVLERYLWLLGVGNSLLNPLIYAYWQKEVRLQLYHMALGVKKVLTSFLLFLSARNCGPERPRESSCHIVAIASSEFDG

According to patent publication US8293729B2 (Boehringer Ingelheim International GmbH, priority 2009, dated 2012):

Target: human GPR119 receptor (Homo sapiens, UniProt Q8TDV5, S329A/T327A)
Experiment: cAMP assay (LANCE cAMP-384) in HEK293 cells stably expressing mutant human GPR119 receptor
Experimental: Quantitative detection of cAMP accumulation from cells expressing human GPR119 receptor was achieved using Perkin Elmer's LANCE cAMP-384 Kit (Cat#AD0264) according to the manufacturer's protocol. Briefly, HEK293 cells stably expressing a mutant form of the human GPR119 receptor (Methionine 1 replaced with the amino acid sequence […] (SEQ ID NO: 1), and T327 & S329 changed to alanines) were grown to 50-70% confluency in cell culture media (DMEM, 10% heat inactivated Fetal Bovine Serum, 50 I.U./mL penicillin, 50 μg/mL streptomycin, 10 mM HEPES, 20 μg/mL G418 Sulfate). On the day of the assay, GPR119 stable HEK293 cells were lifted from the tissue culture plate and 1000 cells/well were incubated along with various concentrations of test compounds for 20 min at 37° C. Detection Buffer (50mM HEPES, 10mM calcium chloride, 0.35% Triton X-100, 1 mg/mL BSA) containing cAMP-specific antibody was then added to all wells and allowed to equilibrate in the dark for 10 minutes at room temperature. Upon equilibration, Detection Buffer containing europium-labeled cAMP tracer complex was added to all wells and allowed to react for 1 hour at room temperature. After 1 hour, bound europium-labeled cAMP tracer was measured using a Perkin Elmer ViewLux. The quantity of cAMP generated in each well was derived from a standard curve. EC50 was determined using nonlinear regression analysis of the cAMP values over a range of agonist concentration (12 points spanning the range from 30 μM to 100pM).
For some compounds for which no EC50 value could be determined, the efficacy is provided at a single concentration (10 μM) yielding % stimulation values.

[1] = the 35th table, compounds 65-25 to 65-36
[2] = cAMP accumulation, HEK293 cells stably expressing mutant human GPR119
[3] = the 34th table, compounds 65-1 to 65-24, tested form: TFA
[4] = cAMP accumulation, HEK293 cells expressing mutant human GPR119, column head prints no unit

Question: With `CCCC(=O)N1CCC(ON=C2CCN(c3cc(F)c(S(C)(=O)=O)cc3F)CC2)CC1` as the compound, how does the pEC50 [1] read?
Answer: The pEC50 was 6.56.

Question: With `COc1nc(N2CCC(=NOC3CCN(C(=O)OC(C)C)CC3)CC2)ncc1S(C)(=O)=O` as the compound, how does the pEC50 [2] read?
Answer: Its pEC50 is 6.53.

Question: `CS(=O)(=O)c1ccc(N2CCC(=NOC3CCN(C(=O)c4ccc(Cl)cc4)CC3)CC2)c(F)c1` was tested. Which pEC50 [3] did it give?
Answer: Its pEC50 is 7.26.

Question: How did the pEC50 [3] turn out when `CS(=O)(=O)c1ccc(N2CCC(=NOC3CCN(C(=O)C4CCCC4)CC3)CC2)c(F)c1` was run?
Answer: Its pEC50 is 7.41.

Question: How did the pEC50 [2] turn out when `CCOC(=O)N(C)Cc1cc(F)c(N2CCC(=NOC3CCN(C(=O)OC(C)C)CC3)CC2)cc1F` was run?
Answer: The pEC50 was 6.52.

Question: How did the pEC50 [4] turn out when `CCN(CC)CCCC(C)NC(=O)c1cc(F)c(N2CCC(=NOC3CCN(C(=O)c4ccc(Cl)cc4)CC3)CC2)cc1F` (centres unmarked) was run?
Answer: The pEC50 was 7.41.

Question: `CS(=O)(=O)c1cc(F)c(N2CCC(=NOC3CCN(C(=O)c4ccc(Cl)cc4)CC3)CC2)cc1F` was tested. Which pEC50 [1] did it give?
Answer: The pEC50 was 6.52.

Question: How did the pEC50 [4] turn out when `CCc1ccc(CN2CCC(ON=C3CCN(c4cc(F)c(C(=O)NCC5COCCN5)cc4F)CC3)CC2)cc1` (centres unmarked) was run?
Answer: Its pEC50 is 6.20.

Question: How did the pEC50 [1] turn out when `CCCCC(=O)N1CCC(ON=C2CCN(c3cc(F)c(S(C)(=O)=O)cc3F)CC2)CC1` was run?
Answer: The pEC50 was 6.95.

Question: With `CC(C)OC(=O)N1CCC(ON=C2CCN(c3ncc([S+](C)[O-])c(N(C)C)n3)CC2)CC1` (centres unmarked) as the compound, how does the pEC50 [2] read?
Answer: The pEC50 was less than 5.00.

Question: `Cc1ccnc(N2CCC(ON=C3CCN(c4ccc(S(C)(=O)=O)cc4F)CC3)CC2)c1` was tested. Which pEC50 (the 32nd table) did it give?
Answer: The pEC50 was 5.76.

Question: With `CC(C)OC(=O)N1CCC(ON=C2CCN(c3ncc(S(C)(=O)=O)c(N(C)C)n3)CC2)CC1` as the compound, how does the pEC50 [2] read?
Answer: Its pEC50 is 6.10.

Question: How did the pEC50 [2] turn out when `COc1ncc(-c2cc(F)c(N3CCC(=NOC4CCN(C(=O)OC(C)C)CC4)CC3)cc2F)cn1` was run?
Answer: The pEC50 was 6.13.

Question: How did the pEC50 [3] turn out when `CS(=O)(=O)c1ccc(N2CCC(=NOC3CCN(C(=O)CC4CCCC4)CC3)CC2)c(F)c1` was run?
Answer: Its pEC50 is 7.06.

pEC50: −log10 of the molar value.
